The target in the assay is T1, Ndi1 (Saccharomyces cerevisiae, UniProt P32340).
T1 construct: The mature Ndi1, which lacks a mitochondrial targeting; (His)10; made in house; host or cells: E. coli BL21(DE3)pLysS, plasmid pET16b(NDI1-m)
T1 sequence (P32340 27-513): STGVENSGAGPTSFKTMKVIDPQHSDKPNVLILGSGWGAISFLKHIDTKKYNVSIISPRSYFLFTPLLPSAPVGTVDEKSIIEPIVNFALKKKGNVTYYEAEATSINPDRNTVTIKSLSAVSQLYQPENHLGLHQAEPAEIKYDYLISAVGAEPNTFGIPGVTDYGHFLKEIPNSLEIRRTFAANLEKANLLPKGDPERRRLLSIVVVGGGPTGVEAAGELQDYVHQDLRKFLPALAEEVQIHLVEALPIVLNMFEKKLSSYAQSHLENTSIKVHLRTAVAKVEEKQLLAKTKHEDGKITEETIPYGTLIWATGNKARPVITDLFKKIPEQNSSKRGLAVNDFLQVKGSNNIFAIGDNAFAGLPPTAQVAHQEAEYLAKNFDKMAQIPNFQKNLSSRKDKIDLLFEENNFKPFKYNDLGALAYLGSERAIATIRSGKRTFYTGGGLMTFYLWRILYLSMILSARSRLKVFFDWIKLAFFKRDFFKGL
Briefly: Inhibition of NADH-ubiquinone-1 oxidoreductase activity of the purified Ndi1. It counts as biochemical. The protocol:
NADH-ubiquinone oxidoreductase activity was measured as described previously. In brief, the reaction was started by adding 100 µM NADH to the enzyme mixture containing 10 ng/mL Ndi1, 50 mM sodium phosphate (pH 6.0) and 1 mM EDTA, which was pre-incubated with various concentrations of ubiquinone-1 for 1 min. […] The concentrations of inhibitors required to obtain the half-maximal inhibition (IC50) were estimated by non-linear regression dose-response curves. The inhibition mode of each inhibitor for ubiquinone-1 was determined by the intersection point in double-reciprocal plots (Fig. 2B–E). To objectively evaluate the inhibition mode, the data of the inhibition kinetics were fitted to the Eq.
This equation provides two dissociation constants, one for the binary enzyme-inhibitor complex (Ki), the other for the ternary enzyme-substrate-inhibitor complex (αKi).

`CO/C(=C/C(N)=O)[C@H](C)[C@H](/C=C/c1csc(-c2csc([C@@H](C)/C=C/C=C/C(C)C)n2)n1)OC` [Myxothiazol, myxothiazol]: the Inhibition mode entry (inhibition mode for ubiquinone-1, from intersection point in Lineweaver-Burk plots, 100 µM NADH) is on record as “mixed”. Moreover, the “α (α > 0)” value (α of mixed model inhibition fit (αKi = dissociation constant of ternary enzyme-substrate-inhibitor complex), mean ± S.D.) was found to be 70.2±192.

Source of the values: publication PMC5799168, “Ubiquinone binding site of yeast NADH dehydrogenase revealed by structures binding novel competitive- and mixed-type inhibitors” (Scientific Reports, 2018).
